Results on 4 molecules are retold here after PMC3731160 (ACS medicinal chemistry letters, 2013).

By UniProt entry, the sequences of proteins in these tests, tags left out. Where a name states a change or a piece, a line headed by the entry shows the natural chain unless it says otherwise.
UniProt P43116: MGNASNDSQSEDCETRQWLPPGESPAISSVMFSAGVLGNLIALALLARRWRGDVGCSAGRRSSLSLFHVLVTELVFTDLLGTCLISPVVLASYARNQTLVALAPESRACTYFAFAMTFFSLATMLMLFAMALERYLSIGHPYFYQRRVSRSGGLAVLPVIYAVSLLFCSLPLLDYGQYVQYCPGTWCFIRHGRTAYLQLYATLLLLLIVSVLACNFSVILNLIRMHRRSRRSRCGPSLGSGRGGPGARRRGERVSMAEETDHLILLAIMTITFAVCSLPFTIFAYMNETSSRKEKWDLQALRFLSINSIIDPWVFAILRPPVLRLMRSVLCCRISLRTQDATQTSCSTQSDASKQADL

One test addresses EP2 receptor (Homo sapiens, UniProt P43116). Nature of the test: PGE2-induced cAMP accumulation. The test is classed as cell-based. The conditions noted are these: from EP2 Schild KB. (In general: cAMP levels reflect the balance of adenylyl cyclase and phosphodiesterase activity.)
A further test addresses T1, DP1 receptor (Homo sapiens, UniProt Q13258).
T1 sequence (Q13258 1-359): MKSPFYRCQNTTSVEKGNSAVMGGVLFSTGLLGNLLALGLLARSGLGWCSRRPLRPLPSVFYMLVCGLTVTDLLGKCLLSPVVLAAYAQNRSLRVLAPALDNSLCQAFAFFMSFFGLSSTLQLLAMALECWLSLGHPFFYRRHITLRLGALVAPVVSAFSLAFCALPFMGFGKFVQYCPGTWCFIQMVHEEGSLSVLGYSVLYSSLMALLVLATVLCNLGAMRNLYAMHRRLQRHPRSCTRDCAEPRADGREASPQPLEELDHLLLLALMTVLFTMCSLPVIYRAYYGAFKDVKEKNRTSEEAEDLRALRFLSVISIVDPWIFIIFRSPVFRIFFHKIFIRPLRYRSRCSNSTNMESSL
The conditions noted are these: ratio of KB values.

In the case of `COc1cc(NS(=O)(=O)c2ccc(NC(=S)NC(=O)c3sc4cc(F)ccc4c3Cl)cc2)nc(OC)n1` [compound 8], the “fold less potency on EP2 in comparison to parent TG6-129” value (“fold less potency on EP2 in comparison” for short) at EP2 receptor was 12–15 fold.

With `CCc1nnc(NS(=O)(=O)c2ccc(NC(=S)NC(=O)/C=C/c3ccc(F)cc3)cc2)s1` [TG6-129, (E)-N-((4-(N-(5-ethyl-1,3,4-thiadiazol-2-yl)sulfamoyl)phenyl)carbamothioyl)-3-(4-fluorophenyl)acrylamide], the “selectivity index for EP2 against DP1” value at DP1 receptor is listed as 1660 fold.

In the case of `CCc1nnc(NS(=O)(=O)c2ccc(NC(=S)NC(=O)/C=C/c3ccc(OC)cc3)cc2)s1` [compound 3], the “fold less potency on EP2 in comparison” value on EP2 receptor is given as 4 fold.

In the case of `COc1ccc(NS(=O)(=O)c2ccc(NC(=S)NC(=O)/C=C/c3ccc(C)cc3)cc2)nn1` [compound 7], the “fold less potency on EP2 in comparison” value at EP2 receptor was about 1.5 fold.
